Results: EP4512403A1, “NEUROPEPTIDE B AND W-RECEPTOR AS A TARGET FOR TREATING MOOD DISORDERS AND/OR CHRONIC STRESS” (Friedrich-Schiller-Universität Jena, priority 2023, dated 2025)

System: mice
Conditions: 0.1 µM, 1 µM and 10 µM injected into NAc; scored for 7 days; data not shown

## COc1ccc(Oc2c(Cl)cnn(C3c4ccccc4-c4ccccc43)c2=O)cc1 [CYM50769]
  health markers score (body weight, state of fur, breathing, posture, stereotypies, movement): 0
